# Earlier results, collected in patent US20130202594A1, “ALK1 Antagonists and Their Uses in Treating Renal Cell Carcinoma” (priority 2012, published 2013).
# System: RCC
# Conditions: high-dose intravenous; cited from earlier work
substance,measurement,value
IL-2: immunostimulatory cytokine,complete remission rate,6-8%
same,cure rate,approximately 5%
same,response rate,15-20%
